# Screens as filed in PubChem BioAssay.
# Hits are enriched below; roughly 2.2% of the tested compounds scored in any of these assays.
# PI4K2A block – inhibitors of human PI4K2A | actives 0.13% (n = 420,000) | purified PI4K2A, ADP-Glo luminescence, 1 h; hits give low values | activity change, negative = inhibition, % at 76.9 µM | AID 1346378; in the data active = activity change below about -50%; inconclusive = mostly about -30% to -49%;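 note: -100% = wells without enzyme as full effect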
#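 Compounds are screened against recombinant PI4K2A using PI as substrate and ATP, the latter dispensed at 300 microM. Reactions run one hour at ambient temperature before ADP-Glo detection; full inhibition defined by wells lacking enzyme.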
# miR-21 reporter – miR-21 reporter, rising signal. 340,000 tested, under 10 active. Potency, µM (highest dose often 38.3 µM), for the others: at the highest dose reporter change, positive = more light. HeLa miR-21 FLuc reporter, luciferase, 48 h. AID 2288; active = well fitted rising curve with a large enough effect; inconclusive = small, poorly fitted or top-dose-only effect; inactive = no such curve, though single readings can be large or run the other way;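 further: % of control where 0% means no effect; miR-21 action dims this reporter so a rising signal means less miR-21 action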
#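 HeLa cells stably expressing CMV-driven firefly luciferase with a downstream miR-21 binding sequence, endogenously expressing miR-21, were treated with titrations (up to about 40uM final) for 48 hours at 37 degree Celsius. Luciferase luminescence was read after lysis.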
# A549 tox-1 – counter-screen for Nrf2 inhibitors: cytotoxicity in A549 cells. A549 ARE-Fluc cells, CellTiter-Fluor viability, 18-24 h. Potency, µM (titrated, usually from 46 µM), inactives show top-dose activity change, negative = cytotoxicity, most hits filed as inhibitors. actives 0.16% (n = 390,000); note: potency is the fitted concentration of half-maximal effect; % is set by controls: 0 for no effect and ±100 for the full control effect
#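 Cytotoxicity counterscreen: CellTiter-Fluor fluorescence was measured in A549 ARE_Fluc cells after 18-24 h of compound exposure in a concentration series. The subsequent BugLite luminescent read reports ARE-luciferase activity.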
# Nrf2 inh – Nrf2 pathway inhibition; A549 ARE-Fluc reporter, luciferase luminescence, 18-24 h; Potency, µM (series often up to 46 µM), inactives show at the highest dose activity change, negative = inhibition, usual class: inhibitors; actives 2.1% (n = 360,000); AID 504444; note: potency is the fitted concentration of half-maximal effect; % is set by controls: 0 for no effect and ±100 for the full control effect; nearly all actives have a fitted effect of over 60% in size
#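 Nrf2 function is reported as luminescence of an ARE-controlled luciferase in A549 cells. Compounds were tested at several concentrations, and a CellTiter-Fluor read on the same wells flagged cytotoxicity.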
# Nrf2 ARE act – activators of Nrf2 (ARE) signaling; AREc32 ARE-luciferase reporter (MCF7-derived line), luminescence, 24 h; Potency, µM (titrated, usually from 46.1 µM), for the others: at the top dose activation, actives largely listed as activators; actives 0.31% (n = 410,000); AID 624171; note: potency is the fitted concentration of half-maximal effect; % of control where 0% means no effect; nearly all actives have a fitted effect of over 65% in size
#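 ARE activation measured as luciferase luminescence (Steady-Glo, 30 min RT) in AREc32_Fluc cells after 24 hr compound exposure at 37 deg C, 5% CO2; cells seeded overnight at 1000/well in OPTI-MEM, 5% FBS.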
# GALK inhibitor – inhibitors of human galactokinase; actives 0.007% (n = 270,000); Purified GALK, Kinase-Glo residual ATP luminescence; P51570; Potency, µM (titrated, usually from 57.5 µM), without a hit: at the top dose activity change, negative = inhibition, usual class: inhibitors; note: potency is the fitted concentration of half-maximal effect; % is set by controls: 0 for no effect and ±100 for the full control effect
#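 Galactose (100 uM) and ATP (35 uM) were turned over by 5 nM GALK for 1 h at RT. Kinase-Glo Plus then converted the remaining ATP into a luminescent signal.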
# FLuc counter 3 – counter-screen for Nrf2 inhibitors: firefly luciferase enzyme inhibition. actives 4% (n = 1,400). purified firefly luciferase, luminescence inhibition. Potency, µM (highest dose often 57.5 µM), for inactives: at the highest dose activity change, negative = inhibition, usual class: inhibitors. shares compounds with Nrf2 inh; note: potency is the fitted concentration of half-maximal effect; % is set by controls: 0 for no effect and ±100 for the full control effect; nearly all actives have a fitted effect of over 65% in size
# A549 tox-2 – counter-screen for Nrf2 inhibitors: cytotoxicity in A549 ARE cells; A549 ARE-Fluc cells, cytotoxicity counterscreen; actives 2% (n = 1,400); shares compounds with Nrf2 inh; Potency, µM (titrated, usually from 46.1 µM), inactives show top-dose activity change, negative = cytotoxicity, hits mostly inhibitors;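 note: potency is the fitted concentration of half-maximal effect; cells exposed to compounds for 18 to 24 hours; % is set by controls: 0 for no effect and ±100 for the full control effect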
# Nrf2 ARE inh – Nrf2 inhibition confirmed, A549 ARE-luciferase | shares compounds with Nrf2 inh | A549 ARE-firefly luciferase reporter, luminescence | Potency, µM (top dose mostly 46.1 µM), without a hit: at the highest dose activity change, negative = inhibition, most hits filed as inhibitors | actives 74% (n = 1,400) | AID 720524; note: potency is the fitted concentration of half-maximal effect; % is set by controls: 0 for no effect and ±100 for the full control effect; nearly all actives have a fitted effect of over 65% in size
# Starred values were filed as active, the others as inactive; ? = inconclusive; / = no result given. Unless noted, calls come from the whole dose curve; as a rule, active = well fitted curve in the direction sought with a large enough effect; inconclusive = small, poorly fitted or top-dose-only effect, or another doubt; inactive = no such curve, though single readings can be large; an effect the other way counts as inactive or inconclusive.
# Results follow in this order: PI4K2A block, miR-21 reporter, A549 tox-1, Nrf2 inh, Nrf2 ARE act, GALK inhibitor, FLuc counter 3, A549 tox-2, Nrf2 ARE inh
> Oc1ccc(Br)cc1C1C=C(c2ccc3c(c2)OCO3)NC(c2ccc(Br)cc2)N1 (stereo unspecified)
    /, /, 0%, 6%, /, /, /, /, /
> O=[N+]([O-])c1cc(Cl)cc2c1nc(NCCO)c1ccccc12
    0, 4%, ?, 1.3µM*, 8.9µM*, -7%, -1%, ?, 0.73µM*
> O=c1[nH]nc(-c2ccc(NCCO)c([N+](=O)[O-])c2)c2ccccc12
    -1, -41%, -13%, ?, 3%, 1%, /, /, /
> COc1ccc(C(=O)CC(=O)c2ccccc2)cc1
    -1, /, 0%, ?, 1%, /, /, /, /
> COc1ccc(C(=O)C/C(=C\C(=O)c2ccc(C)cc2)c2ccccc2)cc1
    22, ?, ?, 2.6µM*, 0%, /, 0%, -27%, 12µM*
> COC(=O)[C@]12C[C@H](CC(=O)N3CCCCC3)C(=O)N(Cc3cccc4ccccc34)C1=C[C@H](C(C)(C)C)O[C@@H]2C
    1, /, /, /, /, /, /, /, /
> Cc1sc2ncnc(NCCc3ccc(S(N)(=O)=O)cc3)c2c1C
    -7, 15%, -20%, 2.3µM*, 7%, 0%, 0%, -11%, 6.5µM*
> Cc1ccc(S(=O)(=O)Nc2ncnc3sc(C)c(C)c23)cc1
    1, /, 1%, ?, 0%, /, /, /, /
> NS(=O)(=O)c1ccc(CCNc2ncnc3sccc23)cc1
    -5, 18%, -25%, 1.6µM*, 0%, 1%, -1%, 2%, ?
> CCCCCCC(=O)NC1CCCCN(Cc2cccc(Cl)c2)C1=O (stereo unspecified)
    2, /, /, /, /, /, /, /, /
> CC(=O)Nc1ccc(S(=O)(=O)NCCSCc2ccc(Cl)cc2Cl)cc1
    -6, 22%, -4%, 9.2µM*, -1%, -2%, 2%, -4%, 10µM*
> CC(=O)Nc1ccc(S(=O)(=O)NCCNS(=O)(=O)c2ccc(NC(C)=O)cc2)cc1
    -1, 0%, 4%, 1%, 0%, 6%, /, /, /
> Cc1nc(CN(C)C(=O)c2cc(COc3ccc4ncccc4c3)on2)cs1
    14, 14%, -15%, 2.9µM*, 0%, -2%, -17%, -5%, -42%
> CCC1CCCCN1C(=O)c1cc(COc2ccc3ncccc3c2)on1 (stereo unspecified)
    -4, 17%, ?, 2.1µM*, 3%, -3%, 0%, -7%, /
> COCC1CCCCN1C(=O)c1cc(COc2ccc3ncccc3c2)on1 (stereo unspecified)
    -7, 20%, -7%, ?, 0%, 6%, /, /, /
> CC(CCCC(C)(C)O)NC(=O)c1cc(COc2ccc3ncccc3c2)on1 (stereo unspecified)
    2, 17%, ?, 5.2µM*, 3%, 6%, -11%, -4%, 6.5µM*
> CCN(CC)S(=O)(=O)c1cc(NC(=O)C(=O)c2c(-c3ccccc3)cc3ccccn23)ccc1C
    4, 30%, /, 5.2µM*, 2%, 0%, 2%, -11%, ?
> CC(=O)[C@H]1CC[C@H]2[C@@H]3C[C@H](C)C4=CC(=O)CC[C@]4(C)[C@H]3[C@@H](O)C[C@]12C
    -5, -20%, 0%, 0.058µM*, 0%, 0%, 0%, -4%, 0.15µM*
> C[C@]12C[C@H](O)[C@H]3[C@@H](CCC4=CC(=O)CC[C@@]43C)[C@@H]1CC[C@@H]2C(=O)CO
    1, -20%, -8%, 0.41µM*, 3%, 5%, 2%, -5%, 1.3µM*
> Nn1c(SCC(=O)NC2CCCCC2)nnc1-c1cc(-c2ccc(F)cc2)n[nH]1
    0, /, /, /, /, /, /, /, /

# Reformatted field by field: three of the compounds above.
canonical_smiles: CC(=O)Nc1ccc(S(=O)(=O)NCCSCc2ccc(Cl)cc2Cl)cc1
  PI4K2A block: -6
  miR-21 reporter: 22%
  A549 tox-1: -4%
  Nrf2 inh: 9.2µM*
  Nrf2 ARE act: -1%
  GALK inhibitor: -2%
  FLuc counter 3: 2%
  A549 tox-2: -4%
  Nrf2 ARE inh: 10µM*
canonical_smiles: CC(=O)Nc1ccc(S(=O)(=O)NCCNS(=O)(=O)c2ccc(NC(C)=O)cc2)cc1
  PI4K2A block: -1
  miR-21 reporter: 0%
  A549 tox-1: 4%
  Nrf2 inh: 1%
  Nrf2 ARE act: 0%
  GALK inhibitor: 6%
  FLuc counter 3: /
  A549 tox-2: /
  Nrf2 ARE inh: /
canonical_smiles: Cc1nc(CN(C)C(=O)c2cc(COc3ccc4ncccc4c3)on2)cs1
  PI4K2A block: 14
  miR-21 reporter: 14%
  A549 tox-1: -15%
  Nrf2 inh: 2.9µM*
  Nrf2 ARE act: 0%
  GALK inhibitor: -2%
  FLuc counter 3: -17%
  A549 tox-2: -5%
  Nrf2 ARE inh: -42%

# More structures follow:
# Results follow in this order: PI4K2A block, miR-21 reporter, A549 tox-1, Nrf2 inh, Nrf2 ARE act, GALK inhibitor, FLuc counter 3, A549 tox-2, Nrf2 ARE inh
> O=C(NCc1cccs1)c1nc2c(nnn2Cc2ccccc2Cl)c(=O)[nH]1
    4, ?, ?, 5.8µM*, -1%, 0%, ?, ?, 2.1µM*
> CC(=O)c1ccc(NC(=O)Cn2nc(N3CCN(c4ccccc4)CC3)ccc2=O)cc1
    4, -11%, -12%, ?, 4%, /, /, /, /
> O=C(Nc1ccc(F)cc1)c1ccc(Cn2nc(N3CCN(c4ccccc4)CC3)ccc2=O)o1
    -6, ?, ?, 8.2µM*, -1%, /, -13%, -28%, 2.6µM*
> CC(CC(=O)N1CCN(c2cccc(Cl)c2)CC1)S(=O)(=O)c1ccc2c(c1)NC(=O)CO2 (stereo unspecified)
    3, ?, ?, 6.5µM*, 0%, -4%, -1%, -19%, 23µM*
> CCCCOCCCNC(=S)Nc1ccc(S(=O)(=O)N2CCOCC2)cc1
    -2, 14%, 3%, -27%, 2%, 12%, /, /, /
> O=S(=O)(c1ccc(NC(=S)NCCC(c2ccccc2)c2ccccc2)cc1)N1CCOCC1
    15, ?, ?, 4.1µM*, 1%, -3%, -12%, -25%, ?
> COc1ccc2c(c1)NC(=O)[C@@]2(CCN1C(=O)c2ccccc2C1=O)c1[nH]c2ccccc2c1CCN1C(=O)c2ccccc2C1=O
    8, /, /, /, /, /, /, /, /
